This passage reports IC50 results from patent publication US11564923B2, “Compounds and pharmaceutical compositions thereof for the treatment of inflammatory disorders” (Galapagos NV, priority 2017, dated 2023).

This assay relates to IL-12 activation of STAT4 in NK-92 cells. The assay can be described thus: IL-12 activation of STAT4 in NK-92 cells using AphaLISA SureFire technology. Format: cell-based. Conditions: Homo sapiens, NK92, AlphaLISA SureFire, average IC50, read-out: IL12 pSTAT4 IC50. The protocol: IL-2 is added freshly to the medium with each medium refreshment step. Cells are cultured in a humidified incubator at 37° C. 5% CO2.
A subcultured fraction of NK-92 cells is washed once in culture medium without rhIL-2 the day before the experiment and incubated overnight in a culture flask.
5% CO2. […] NK-92 cells are triggered with rhIL-12 for 30 min at 37° C. 5% CO2.
After 30 min of cytokine stimulation the cells are lysed by addition of 15 μL 5× lysis buffer (supplemented with the AlphaLISA kit). After 10 minutes, plates are frozen at −80° C. overnight and the next day the levels of phospho-STAT4 are quantified using the AlphaLISA SureFire ULTRA p-STAT4 (Tyr693) (Perkin Elmer, Catalogue number ALSU-PST4-A10K) according to the manufacturers instructions. AlphaLISA signal (relative light units) is measured using an Envision (Perkin Elmer).
The percentage inhibition is calculated as: […]
RLU(trigger/veh): Relative lumescent signal determined in presence of vehicle and trigger
RLU(test compound): Relative luminescent signal determined in presence of test compounds and trigger
PIN values are plotted for compounds tested in dose-response and IC50 values are derived using GraphPad Prism Software applying non-linear regression (sigmoidal) curve fitting. The data are expressed as the average IC50 from different experiments.

For the compound `Cc1cc(C#N)ncc1Oc1cc(Nc2ccc(C(=O)N3CC(C(C)(C)O)C3)nn2)c2ncn(C)c2n1` [Compound 111, 5-[7-[[6-[3-(1-hydroxy-1-methyl-ethyl)azetidine-1-carbonyl]pyridazin-3-yl]amino]-3-methyl-imidazo[4,5-b]pyridin-5-yl]oxy-4-methyl-pyridine-2-carbonitrile], the IC50 came to 0.393 µM.
